From ChEMBL document CHEMBL1140571, “New 1,8-naphthyridine and quinoline derivatives as CB2 selective agonists” (Bioorg Med Chem Lett, 2007)

Chains of the proteins cited; added tags and fusions are not shown.
UniProt P21554, whole entry: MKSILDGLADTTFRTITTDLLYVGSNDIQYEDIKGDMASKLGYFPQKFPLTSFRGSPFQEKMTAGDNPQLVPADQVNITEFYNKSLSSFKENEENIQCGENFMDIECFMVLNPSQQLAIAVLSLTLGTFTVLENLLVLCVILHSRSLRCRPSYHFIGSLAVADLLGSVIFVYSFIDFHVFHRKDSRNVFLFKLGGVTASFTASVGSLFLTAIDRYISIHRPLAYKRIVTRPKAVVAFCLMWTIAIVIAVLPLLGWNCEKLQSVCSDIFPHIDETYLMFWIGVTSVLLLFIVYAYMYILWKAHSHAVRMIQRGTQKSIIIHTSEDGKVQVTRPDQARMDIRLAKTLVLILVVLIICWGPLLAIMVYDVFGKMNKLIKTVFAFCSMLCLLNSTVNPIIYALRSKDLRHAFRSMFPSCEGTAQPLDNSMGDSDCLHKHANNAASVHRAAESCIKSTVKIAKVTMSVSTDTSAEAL

Target: Cannabinoid receptor 1 (Homo sapiens, UniProt P21554)
Experiment: biochemical
Type: cell-based, HEK293

Cc1ccc(Cn2nc(C(=O)N[C@@H]3C(C)(C)[C@@H]4CC[C@@]3(C)C4)cc2-c2ccc(Cl)c(C)c2)cc1 [SR-144528]
Ki: > 5 µM
